Laboratory results published in article PMC11243598, “Inhibition of Monoamine Oxidases by Pyridazinobenzylpiperidine Derivatives” (Molecules, 2024).

Protein sequences, listed by entry. Tags and fused reporters are not part of them.
UniProt P21397, whole entry: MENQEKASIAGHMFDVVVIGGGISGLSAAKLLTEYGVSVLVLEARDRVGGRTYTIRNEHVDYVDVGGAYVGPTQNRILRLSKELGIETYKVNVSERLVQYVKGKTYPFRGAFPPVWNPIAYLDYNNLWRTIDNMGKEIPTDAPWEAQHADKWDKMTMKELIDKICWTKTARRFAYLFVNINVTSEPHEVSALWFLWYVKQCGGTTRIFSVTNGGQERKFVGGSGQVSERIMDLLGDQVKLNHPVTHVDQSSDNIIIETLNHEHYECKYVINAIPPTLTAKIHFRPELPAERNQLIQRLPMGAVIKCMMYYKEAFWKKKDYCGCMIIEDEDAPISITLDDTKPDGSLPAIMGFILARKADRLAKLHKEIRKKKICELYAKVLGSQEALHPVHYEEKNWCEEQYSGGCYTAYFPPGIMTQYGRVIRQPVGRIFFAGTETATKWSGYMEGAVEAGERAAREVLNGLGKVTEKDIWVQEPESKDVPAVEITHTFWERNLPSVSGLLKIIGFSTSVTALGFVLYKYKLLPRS

Target: hMAO-A (Homo sapiens, UniProt P21397)
Assay: Inhibition of recombinant hMAO-A, kynuramine substrate, continuous absorbance method

SMILES: C#CCN(C)CCCOc1ccc(Cl)cc1Cl [Clorgyline, reference compound]
- Residual Activity at 10 µM (%) MAO-A: −0.30 ± 0.43%
